Experimental findings from patent US11096967B2, “Pharmaceutical composition for preventing or treating regulatory T cell-mediated diseases” (SCM LIFESCIENCE CO., LTD., priority 2016, dated 2021) are described below.

Experiment [1] has as its system PI3K-Akt signaling pathway. Briefly: Akt phosphorylation in CD4^+ T cells (Western blotting). The experiment is classed as cell-based, human. The following applies: rhICOSL 5 μg/mL, Treg induction condition. Here is the method:
For this Example, CD4^+ T cells were treated with rhICOSL, recombinant human ICOSL (5 μg/mL) (R&D research, Minneapolis, Minn., USA), for 2 days under Treg induction conditions, and their expression of CD25, ICOS and FoxP3 was analyzed by flow cytometry. Five independent experiments were carried out. In particular, for the administration of rhICOSL (R&D research, Minneapolis, Minn., USA), the wells were coated with 5 μg/mL rhICOSL at 37° C. for 4 hours. The purified CD4^+ cells were added to each of wells at 1×10^6 cells/mL, which were stimulated with 1 ng/mL IL-2 (eBiosciences), 5 ng/mL TGF-α (R&D research, Minneapolis, Minn., USA) and 0.1 μM all-trans-retinoic acid (atRA; PHASigma-Aldrich, St. Louis, Mo., USA) as well as 3 μg/mL anti-CD28 mAb (eBiosciences) for 2 to 5 days. hcMSCs were co-cultured with CD4^+ T cells at ratio of 1:10 (hcMSCs:T cells) for 2 days. After 2 days, hcMSCs were washed three times with cold phosphate-buffered saline (PBS) containing 0.05 mM ethylenediamine tetraacetic acid (EDTA) to detach lymphocytes from hcMSCs. Then, hcMSCs were trypsinized and washed twice with cold PBS-EDTA solution and stained with phycoerythrin (PE)-conjugated ICOSL antibody (BioLegend) to analyze ICOSL expression. […]
More particularly, CD4^+ T cells were pre-treated with LY294002 (5 μM) and GSK690693 (1 μM) for 30 min. […] Total Akt was determined. […]
On the technique in general: A western blot detects proteins with antibodies after separation by electrophoresis.

For experiment [2], the system named is CD4^+ T cells. Briefly: Treg induction of CD4^+ T cells by rhICOSL (flow cytometry). The experiment is classed as cell-based, human. The following applies: wells coated with 5 μg/mL rhICOSL, 2 days, vs non-treated control. Here is the method:
For this Example, CD4^+ T cells were treated with rhICOSL, recombinant human ICOSL (5 μg/mL) (R&D research, Minneapolis, Minn., USA), for 2 days under Treg induction conditions, and their expression of CD25, ICOS and FoxP3 was analyzed by flow cytometry. Five independent experiments were carried out. In particular, for the administration of rhICOSL (R&D research, Minneapolis, Minn., USA), the wells were coated with 5 μg/mL rhICOSL at 37° C. for 4 hours. The purified CD4^+ cells were added to each of wells at 1×10^6 cells/mL, which were stimulated with 1 ng/mL IL-2 (eBiosciences), 5 ng/mL TGF-α (R&D research, Minneapolis, Minn., USA) and 0.1 μM all-trans-retinoic acid (atRA; PHASigma-Aldrich, St. Louis, Mo., USA) as well as 3 μg/mL anti-CD28 mAb (eBiosciences) for 2 to 5 days. hcMSCs were co-cultured with CD4^+ T cells at ratio of 1:10 (hcMSCs:T cells) for 2 days. After 2 days, hcMSCs were washed three times with cold phosphate-buffered saline (PBS) containing 0.05 mM ethylenediamine tetraacetic acid (EDTA) to detach lymphocytes from hcMSCs. Then, hcMSCs were trypsinized and washed twice with cold PBS-EDTA solution and stained with phycoerythrin (PE)-conjugated ICOSL antibody (BioLegend) to analyze ICOSL expression. The phosphorylation of Akt by rhICOSL treatment was confirmed by Western blotting. The results are illustrated in FIG. 13.
Background: In flow cytometry, cells or beads pass a laser one at a time.

B1: rhICOSL: recombinant human ICOSL (R&D research) (protein)
chain: DTQEKEVRAMVGSDVELSCACPEGSRFDLNDVYVYWQTSESKTVVTYHIPQNSSLENVDSRYRNRALMSPAGMLRGDFSLRLFNVTPQDEQKFHCLVLSQSLGFQEVLSVEVTLHVAANFSVPVVSAPHSPSQDELTFTCTSINGYPRPNVYWINKTDNSLLDQALQNDTVFLNMRGLYDVVSVLRIARTPSVNIGCCIENVLLQQNLTVGSQTGNDIGERDKITENPVSTGEKNAATWS
Take B1: the Akt phosphorylation entry in experiment [1] is listed as “significantly increased Akt phosphorylation”. For the same molecule, the “FoxP3^+ICOS^+ Treg induction” value in experiment [2] is reported as “sufficiently promoted FoxP3^+ICOS^+ Treg induction”.
